These are literature values, as cited in patent US11198711B2 (priority 2013, dated 2021).

The test system of this data set is Heliothis sp. The following applies: native Hv1a, literature value; cited from earlier work.

For ω-ACTX-Hv1a, the LD50 was 12 µg/g.
